Tests used:
HCT-116 wild-type cells = experiment: Inhibitory activity on HCT-116 wild-type cell proliferation (Cell-Titer Glo); settings: read-out: IC50 HCT-116 wild-type cells, 8 days, 37 °C, 0.1% DMSO
Procedure: Test case 2: Inhibitory activity test of compounds on HCT-116 wild-type cell proliferation Materials and cells: HCT-116 wild-type cells were purchased from Botron Healthcare (China); RPMI-1640 medium, fetal bovine serum and penicillin-streptomycin were purchased from Thermo Fisher (United States); 384-well plates were purchased from PerkinElmer (United States); and Cell-Titer Glo kits were purchased from Promega (United States).
Cell culture: HCT-116 wild-type cells were cultured in RPMI-1640 medium containing 10% fetal bovine serum+1% penicillin-streptomycin at 37 °C and 5% CO2. Cells in the logarithmic growth phase may be used for the test.
Detection of cell proliferation activity: The Cell-Titer Glo kit was used to detect the proliferation inhibitory activity of the compounds on HCT-116 wild-type cell proliferation. The cell concentration was adjusted, rendering that cells were inoculated into a 384-well plate at 40 μL per well and incubated overnight at 37 °C and 5% CO2. 40 nL of the compound was added into each well to reach a final concentration of 0-10,000 nM (starting concentration: 10,000 nM, 2-fold dilution, 10 points), and the cell plate with 0.1% DMSO content was incubated at 37 °C and 5% CO2 for 8 days. 40 μL of Cell-Titer Glo reagent was added to detect cell activity.

[1] = tested on: HCT-116 MTAP(−/−) deficient cells; experiment: Inhibitory activity on the proliferation of HCT-116 MTAP (−/−) deficient cells (Cell-Titer Glo); settings: read-out: IC50 HCT-116 MTAP(−/−) deficient cells, 8 days, 37 °C, 0.1% DMSO
Source text: Test Case 1: Inhibitory Activity Test of Compounds on the Proliferation of HCT-116 MTAP (−/−) Deleted Cells
Materials and cells: HCT-116 MTAP (−/−) deficient cells were purchased from Botron Healthcare (China); RPMI-1640 medium, fetal bovine serum and penicillin-streptomycin were purchased from Thermo Fisher (United States); 384-well plates were purchased from PerkinElmer (United States); and Cell-Titer Glo kits were purchased from Promega (United States).
Cell culture: HCT116 MTAP (−/−) deleted cells were cultured in RPMI 1640 medium containing 10% fetal bovine serum+1% penicillin-streptomycin at 37 °C and 5% CO2. Cells in the logarithmic growth phase may be used for the test.
Detection of inhibitory activity on cell proliferation: The Cell-Titer Glo kit was used to detect the proliferation inhibitory activity of the compounds on HCT-116 MTAP (−/−) deficient cells. The cell concentration was adjusted, rendering that cells were inoculated into a 384-well plate at 40 μL per well and incubated overnight at 37 °C and 5% CO2. 40 nL of the compound was added into each well to reach a final concentration of 0-10,000 nM (starting concentration: 10,000 nM, 3-fold dilution, 10 points), and the cell plate with 0.1% DMSO content was incubated at 37 °C and 5% CO2 for 8 days. 40 μL of Cell-Titer Glo reagent was added to detect cell activity.

IC50 (HCT-116 wild-type cells) | IC50 [1] | Compound
> 10000 nM | 153 nM | Nc1nc2cc(F)c(C(=O)N(Cc3nccc4ccccc34)C3CC3)cc2n2cncc12
3230 nM | 17.8 nM | CC(c1ccc(C(F)(F)F)cc1)N(C(=O)c1cc2c(cn1)nc(N)c1cncn12)C1CC1 (centres unmarked)
> 10000 nM | 19.9 nM | CC(c1ccc(OC(F)(F)F)cc1)N(C(=O)c1cc2c(cc1F)nc(N)c1cncn12)C1CC1 (centres unmarked)
2880 nM | 36.4 nM | Nc1nc2cnc(C(=O)N(Cc3ccc(C(F)(F)F)cn3)C34CC(C3)C4)cc2n2cncc12
1770 nM | 17.5 nM | Cn1cc(N(Cc2ccc(C(F)(F)F)cn2)C(=O)c2cc3c(cn2)nc(N)c2cncn23)cn1
3160 nM | 21.9 nM | CC(c1ccc2ccccc2n1)N(C(=O)c1cc2c(cc1F)nc(N)c1cncn12)C1CC1 (centres unmarked)
> 10000 nM | 38 nM | [2H]C([2H])([2H])N(C(=O)c1ccc2nc(N)c3cncn3c2c1)[C@H](C)c1ccc(C(F)(F)F)cn1
8360 nM | 89.6 nM | 4-amino-7-fluoro-N-isopropyl-N-(1-(5-trifluoromethyl)pyridin-2-yl)ethyl)imidazo[1,5-a]quinoxaline-8-formamide
6340 nM | 57.9 nM | [2H]C([2H])([2H])N(C(=O)c1cc2c(cn1)nc(N)c1cncn12)C(C)c1ccc(C(F)(F)F)cn1 (centres unmarked)
1560 nM | 66.9 nM | COC[C@@H](C)N(Cc1ccc(C(F)(F)F)cn1)C(=O)c1cc2c(cn1)nc(N)c1cncn12
> 10000 nM | 56.9 nM | CC(c1ccc(OC(F)(F)F)cn1)N(C(=O)c1ccc2nc(N)c3cncn3c2c1)C1CC1 (centres unmarked)
> 10000 nM | 216 nM | Nc1nc2ccc(C(=O)N(Cc3cc4ccccc4cn3)C3CC3)cc2n2cncc12
1640 nM | 20.1 nM | C[C@H](c1ccc(C(F)(F)F)cc1)N(C)C(=O)c1cc2c(cc1F)nc(N)c1cncn12
1120 nM | 7.9 nM | C[C@H](c1ccc(C(F)(F)F)cc1)N(C)C(=O)c1cc2c(cc1Cl)nc(N)c1cncn12
2270 nM | 186 nM | CC(c1ncccn1)N(Cc1ccc(C(F)(F)F)cn1)C(=O)c1cc2c(cc1Cl)nc(N)c1cccn12 (centres unmarked)
193 nM | 13.3 nM | 4-amino-7-fluoro-N-(3R,4R)-4-methoxytetrahydro-2H-pyran-3-yl)-N-(5-trifluoromethyl)pyridin-2-ylmethyl)imidazo[1,5-a]quinoxaline-8-formamide
796 nM | 6.6 nM | C[C@H](c1ccc(C(F)(F)F)cn1)N(C)C(=O)c1cc2c(cc1Cl)nc(N)c1cncn12
> 10000 nM | 3840 nM | CC(c1ncccn1)N(Cc1ccc(C(F)(F)F)cn1)C(=O)c1ccc2nc(N)n3ccnc3c2c1 (centres unmarked)
7630 nM | 36.3 nM | C[C@H](c1cc2ccccc2cn1)N(C(=O)c1cc2c(cc1F)nc(N)c1cncn12)C1CC1
> 10000 nM | 93.9 nM | CC(c1cc2ccccc2cn1)N(C(=O)c1cc2c(cc1F)nc(N)c1cncn12)C1CC1 (centres unmarked)
> 3000 nM | > 3000 nM | CN(Cc1ccccc1)C(=O)c1ccc2nc(N)c3cncn3c2c1
1640 nM | 21.8 nM | Nc1nc2cc(F)c(C(=O)N(Cc3ccc(OC(F)(F)F)cc3)C3CC3)cc2n2cncc12
4860 nM | 144 nM | N#Cc1cc2nc(N)c3cncn3c2cc1C(=O)N(Cc1ccc(C(F)(F)F)cn1)C1CC1
4700 nM | 66.6 nM | CC(c1ccc(C(F)(F)F)cn1)N(C(=O)c1cc2c(cc1F)nc(N)c1cncn12)C1CC1 (centres unmarked) [Example 16]
4700 nM | 66.6 nM | CC(c1ccc(C(F)(F)F)cn1)N(C(=O)c1cc2c(cc1F)nc(N)c1cncn12)C1CC1 (centres unmarked) [Example 29]

IC50 (HCT-116 wild-type cells) | IC50 [1] | Compound
405 nM | 4.7 nM | C[C@H](c1ccc(S(F)(F)(F)(F)F)cc1)N(C(=O)c1ccc2nc(N)c3cncn3c2c1)C1CC1
2630 nM | 20.3 nM | C[C@H](c1ccc(C(F)(F)F)cc1)N(C)C(=O)c1ccc2nc(N)c3cncn3c2c1
212 nM | 8.8 nM | CC(c1ncccn1)N(Cc1ccc(C(F)(F)F)cn1)C(=O)c1cc2c(cc1F)nc(N)c1cncn12 (centres unmarked)
> 10000 nM | 98.6 nM | Nc1nc2cc(F)c(C(=O)N(Cc3ccc(C(F)(F)F)nc3)C3CC3)cc2n2cncc12
> 10000 nM | 89.2 nM | Nc1nc2cc(F)c(C(=O)N(Cc3cc4ccccc4cn3)C3CC3)cc2n2cncc12
> 10000 nM | > 3000 nM | C[C@@H](c1ccc(C(F)(F)F)nn1)N(C)C(=O)c1ccc2nc(N)c3cncn3c2c1
> 10000 nM | 71.1 nM | Nc1nc2ccc(C(=O)N(Cc3ccc(OC(F)(F)F)cc3)C3CC3)cc2n2cncc12
1610 nM | 18.9 nM | CC(c1ccc(OC(F)(F)F)cn1)N(C(=O)c1cc2c(cc1F)nc(N)c1cncn12)C1CC1 (centres unmarked)
837 nM | 12.7 nM | C[C@H](c1ccc(C(F)(F)F)cc1)N(C)C(=O)c1cc2c(cc1C#N)nc(N)c1cncn12
8800 nM | 99 nM | Nc1nc2ccc(C(=O)N(Cc3ccc(C(F)(F)F)cn3)C3CC3)cc2n2cncc12
7900 nM | 76.1 nM | Cc1ncn2c1c(N)nc1ccc(C(=O)N(Cc3ccc(C(F)(F)F)cn3)C3CC3)cc12
> 10000 nM | 84.6 nM | COc1ccc(CN(C(=O)c2cc3c(cc2F)nc(N)c2cncn23)C2CC2)nc1
1760 nM | 12.5 nM | [2H]C([2H])([2H])N(C(=O)c1cc2c(cc1F)nc(N)c1cncn12)[C@H](C)c1ccc(C(F)(F)F)cn1
1320 nM | 39 nM | CC(c1ccc(C(F)(F)F)cn1)N(CC1CC1)C(=O)c1cc2c(cn1)nc(N)c1cncn12 (centres unmarked)
> 10000 nM | > 3000 nM | CC(c1cc2ncn(C)c2cn1)N(C(=O)c1cc2c(cc1F)nc(N)c1cncn12)C1CC1 (centres unmarked)
> 10000 nM | > 3000 nM | [2H]C([2H])([2H])N(C(=O)c1ccc2nc(N)c3cncn3c2c1)[C@@H](C)c1ccc(C(F)(F)F)cn1
5190 nM | 2320 nM | Cc1cc2c(N)nc3ccc(C(=O)N(Cc4ccc(C(F)(F)F)cn4)C4CC4)cc3n2c1
> 10000 nM | 34.6 nM | CC(c1ccc(SC(F)(F)F)cc1)N(C(=O)c1ccc2nc(N)c3cncn3c2c1)C1CC1 (centres unmarked)
> 10000 nM | > 3000 nM | CC(c1cnc(C(F)(F)F)cn1)N(C(=O)c1ccc2nc(N)c3cncn3c2c1)C1CC1 (centres unmarked)
> 10000 nM | 2870 nM | C[C@@H](c1cc2ccccc2cn1)N(C(=O)c1cc2c(cc1F)nc(N)c1cncn12)C1CC1
> 10000 nM | > 3000 nM | C[C@@H](c1ccc(C(F)(F)F)nn1)N(C(=O)c1cc2c(cc1F)nc(N)c1cncn12)C1CC1
945 nM | 15.2 nM | Nc1nc2cc(Cl)c(C(=O)N(Cc3ccc(C(F)(F)F)cn3)C3CC3)cc2n2cncc12
2000 nM | 11.5 nM | C[C@H](c1ccc(C(F)(F)F)cc1)N(C)C(=O)c1cc2c(cn1)nc(N)c1cncn12
6780 nM | 160 nM | Nc1nc2cnc(C(=O)N(Cc3ccc(C(F)(F)F)cn3)C3CC3)cc2n2cncc12

— patent US20260384428A1, “NOVEL PRMT5 INHIBITOR AND USE THEREOF” (published 2026)
